Assay results: patent publication US9695149B2, “1,2,6-substituted benzimidazoles as flap modulators” (JANSSEN PHARMACEUTICA NV, priority 2013, dated 2017)

By UniProt entry, the sequences of proteins in these tests, tags left out. Where a name states a change or a piece, a line headed by the entry shows the natural chain unless it says otherwise.
UniProt P20292: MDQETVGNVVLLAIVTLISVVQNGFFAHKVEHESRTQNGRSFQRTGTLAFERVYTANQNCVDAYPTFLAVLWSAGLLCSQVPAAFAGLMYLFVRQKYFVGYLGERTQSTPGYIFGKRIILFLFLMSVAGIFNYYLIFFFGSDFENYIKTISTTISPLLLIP

Target: human FLAP (Homo sapiens (Human), UniProt P20292)
Experiment: FLAP binding assay (HTRF format)
Settings: human FLAP-containing Sf-9 membranes, wild type; average of runs

Structure (SMILES) | Ki [nM]
Cc1ccc(COc2ccc3nc(C4CCCC[C@H]4C(=O)O)n(Cc4cccc(N5CCC(F)(F)C5)c4)c3c2)nc1 (mixture of isomers) [Example 220, racemic cis-2-{1-[3-(3,3-Difluoropyrrolidin-1-yl)benzyl]-6-[(5-methylpyridin-2-yl)methoxy]-1H-benzimidazol-2-yl}cyclohexanecarboxylic acid] | 4.2
Cc1ccc(COc2ccc3nc(C4CCCC[C@H]4C(=O)O)n(Cc4cc(Br)ccc4F)c3c2)nc1 (mixture of isomers) [Example 218, racemic trans-2-{1-(5-Bromo-2-fluorobenzyl)-6-[(5-methylpyridin-2-yl)methoxy]-1H-benzimidazol-2-yl}cyclohexanecarboxylic acid] | 24
Cc1ccc(COc2ccc3nc(C4CCCC[C@H]4C(=O)O)n(Cc4cccc(N5CCCCC5)c4)c3c2)nc1 (mixture of isomers) [Example 223, racemic cis-2-{6-[(5-Methylpyridin-2-yl)methoxy]-1-(3-piperidin-1-ylbenzyl)-1H-benzimidazol-2-yl}cyclohexanecarboxylic acid] | 6.8
Cc1ccc(COc2ccc3nc(C4CCCC[C@H]4C(=O)O)n(Cc4cccc(N5CCCCC5)c4)c3c2)nc1 (mixture of isomers) [Example 224, racemic trans-2-{6-[(5-Methylpyridin-2-yl)methoxy]-1-(3-piperidin-1-ylbenzyl)-1H-benzimidazol-2-yl}cyclohexanecarboxylic acid] | 17
Cc1ccc(COc2ccc3nc(C4[C@H](C(=O)O)C4(C)C)n(Cc4cc(Br)ccc4F)c3c2)nc1 (mixture of isomers) [Example 227, racemic cis-3-{1-(5-Bromo-2-fluorobenzyl)-6-[(5-methylpyridin-2-yl)methoxy]-1H-benzimidazol-2-yl}-2,2-dimethylcyclopropanecarboxylic acid] | 180
Cc1ccc(COc2ccc3nc([C@H]4CCCC[C@H]4C(=O)O)n(Cc4cc(Br)ccc4F)c3c2)nc1 (racemic) [Example 229, racemic-cis-2-{1-(5-Bromo-2-fluorobenzyl)-6-[(5-methylpyridin-2-yl)methoxy]-1H-benzimidazol-2-yl}cyclohexanecarboxylic acid] | 11
